Test results from BindingDB's records for doi:10.1038/sj.mp.4000336 (University of Toronto, 1998).

Chains of the proteins cited; added tags and fusions are not shown. A line that says so, or that is headed by a name, gives the form on record, which may keep a tag or linker.
UniProt P35462, as listed by the source: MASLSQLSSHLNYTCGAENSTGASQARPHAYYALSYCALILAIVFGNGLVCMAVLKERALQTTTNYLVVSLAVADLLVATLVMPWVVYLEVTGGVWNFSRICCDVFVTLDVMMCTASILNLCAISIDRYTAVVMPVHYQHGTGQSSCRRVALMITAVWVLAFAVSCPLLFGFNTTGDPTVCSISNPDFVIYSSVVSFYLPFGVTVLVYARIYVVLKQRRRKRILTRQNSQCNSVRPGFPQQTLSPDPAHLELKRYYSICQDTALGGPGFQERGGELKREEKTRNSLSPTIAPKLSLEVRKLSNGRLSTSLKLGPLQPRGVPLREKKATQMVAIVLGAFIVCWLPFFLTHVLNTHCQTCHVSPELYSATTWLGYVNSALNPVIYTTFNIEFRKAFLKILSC
UniProt P14842, whole entry: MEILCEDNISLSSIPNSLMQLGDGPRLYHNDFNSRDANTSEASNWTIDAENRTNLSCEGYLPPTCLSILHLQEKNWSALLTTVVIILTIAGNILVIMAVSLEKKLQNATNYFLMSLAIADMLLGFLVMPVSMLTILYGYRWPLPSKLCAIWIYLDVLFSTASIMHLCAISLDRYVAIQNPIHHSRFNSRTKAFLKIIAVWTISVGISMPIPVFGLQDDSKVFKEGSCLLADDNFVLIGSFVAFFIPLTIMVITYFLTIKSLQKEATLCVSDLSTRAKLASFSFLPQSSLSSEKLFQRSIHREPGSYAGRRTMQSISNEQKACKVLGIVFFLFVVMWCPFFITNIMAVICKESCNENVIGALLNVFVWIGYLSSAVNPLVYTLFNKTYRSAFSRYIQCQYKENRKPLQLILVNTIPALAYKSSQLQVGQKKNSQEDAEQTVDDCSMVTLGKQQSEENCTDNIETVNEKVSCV

Tests used:
[1] = biological target: D(3) dopamine receptor (Homo sapiens, UniProt P35462)
[2] = biological target: 5-hydroxytryptamine receptor 2A (Rattus norvegicus, UniProt P14842)

Row | Structure (SMILES) | Ki [1] [nM] | Ki [2] [nM]
1 | CCN1CCC[C@H]1CNC(=O)c1cc(S(N)(=O)=O)ccc1OC [Sulpiride-S] | 6.4 | 
2 | O=C1NCCN1CCN1CCC(c2cn(-c3ccc(F)cc3)c3ccc(Cl)cc23)CC1 [1-[2-[4-[5-chloro-1-(4-fluorophenyl)-indol-3-yl]-1-piperidyl]ethyl]imidazolidin-2-one] |  | 0.3
